This note sets out measurements from PubChem BioAssay AID1347080 (ICCB-Longwood Screening Facility, Harvard Medical School, 2019).

The entries are a selection whose mix differs from that of the whole data set. Activity calls are given as the source filed them.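 Rule for the calls: active = compounds whose cell count with miR-34 switched on is under 0.7 times the count with it off; inactive = the rest.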

The nature of the experiment: sensitizers of A549 cells to miR-34 induction, primary screen, imaging, A549 dox-inducible miR-34, nuclei and caspase counts (AID 1347080). Note: test concentration not given here. The note with it: A549 miR-34 inducible, Hoechst nuclei count, 48 h; active compounds read low; cell number ratio, induced over uninduced.
As to `CC1=C2[N-][C@@H](C(CC(N)=O)[C@@]2(C)CCC(=O)NCC(C)OP(=O)([O-])OC2C(CO)OC(n3cnc4cc(C)c(C)cc43)C2O)[C@]2(C)N=C(C(C)=C3N=C(C=C4N=C1C(CCC(N)=O)C4(C)C)C(CCC(N)=O)[C@]3(C)CC(N)=O)C(CCC(N)=O)[C@]2(C)CC(N)=O.[C-]#N.[Co+3]` (stereo partly drawn), the fold change is inactive: 0.879.
To `C/C1=C2N=C(/C=C3N=C(/C(C)=C4\[N-][C@@](C)([C@@H]5N=C1[C@](C)(CCC(=O)NC[C@@H](C)OP(=O)([O-])O[C@H]1[C@@H](O)[C@@H](n6cnc7cc(C)c(C)cc76)O[C@@H]1CO)[C@H]5CC(N)=O)[C@@](C)(CC(N)=O)[C@@H]4CCC(N)=O)[C@@](C)(CC(N)=O)[C@@H]\3CCC(N)=O)C(C)(C)[C@@H]/2CCC(N)=O.[C-]#N.[Co+3]` belongs inactive: 0.834; to `CN(C)CCS`, inactive: 0.914.
